In patent publication US8455203B2:
This is a selection: effects in other tests are not listed, and their absence says nothing.

Sequences of proteins named here, by UniProt entry; tags and fusion partners are left off.
UniProt P41145, whole entry: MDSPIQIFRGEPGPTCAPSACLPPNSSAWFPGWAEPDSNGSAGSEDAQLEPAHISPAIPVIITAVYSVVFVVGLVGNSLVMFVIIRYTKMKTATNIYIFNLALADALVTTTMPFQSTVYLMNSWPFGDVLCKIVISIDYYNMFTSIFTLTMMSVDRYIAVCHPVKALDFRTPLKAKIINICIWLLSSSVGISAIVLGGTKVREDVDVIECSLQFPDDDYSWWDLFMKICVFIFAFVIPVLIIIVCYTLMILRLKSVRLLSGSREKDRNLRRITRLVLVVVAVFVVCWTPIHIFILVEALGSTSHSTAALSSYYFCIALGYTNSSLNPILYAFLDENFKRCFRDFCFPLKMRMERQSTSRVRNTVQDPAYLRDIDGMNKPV

Molecular target: KOR-1 receptor (Homo sapiens, UniProt P41145)
Assay: ^3H-diprenorphine saturation binding assay on SK12 cells

^3H-diprenorphine
non-specific binding: about 25% | specific binding: 75%
